US9637472B2, “Substituted 6,5-fused bicyclic heteroaryl compounds” (Epizyme, Inc., priority 2011, dated 2017)

The chains behind the UniProt entries cited, without tags or fusion partners. A line that says so, or that is headed by a name, gives the form on record, which may keep a tag or linker.
UniProt Q15910, other isoform, or with tags, fused parts or gaps: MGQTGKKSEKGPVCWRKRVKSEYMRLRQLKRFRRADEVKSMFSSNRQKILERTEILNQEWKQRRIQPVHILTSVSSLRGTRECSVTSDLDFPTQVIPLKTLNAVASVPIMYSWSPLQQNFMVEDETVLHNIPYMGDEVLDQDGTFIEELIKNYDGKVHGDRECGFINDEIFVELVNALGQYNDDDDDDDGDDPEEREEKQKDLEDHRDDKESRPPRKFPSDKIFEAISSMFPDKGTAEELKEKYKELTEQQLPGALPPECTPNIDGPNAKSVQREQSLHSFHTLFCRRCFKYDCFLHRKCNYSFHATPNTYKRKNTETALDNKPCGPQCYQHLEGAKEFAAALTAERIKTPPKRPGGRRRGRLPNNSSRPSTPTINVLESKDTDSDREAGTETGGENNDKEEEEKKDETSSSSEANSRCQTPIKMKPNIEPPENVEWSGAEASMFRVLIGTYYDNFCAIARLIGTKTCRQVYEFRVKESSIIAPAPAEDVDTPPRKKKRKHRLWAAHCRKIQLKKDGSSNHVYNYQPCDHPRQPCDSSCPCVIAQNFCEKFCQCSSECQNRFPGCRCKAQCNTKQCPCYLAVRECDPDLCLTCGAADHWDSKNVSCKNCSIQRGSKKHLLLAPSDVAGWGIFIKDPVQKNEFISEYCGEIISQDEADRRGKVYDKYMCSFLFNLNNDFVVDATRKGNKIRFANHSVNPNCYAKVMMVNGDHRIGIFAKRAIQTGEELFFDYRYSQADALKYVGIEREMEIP

biological target: EZH2 (Homo sapiens (Human), UniProt Q15910); assay: PRC2 enzyme assay on peptide substrates; assay type: biochemical; conditions: not given
Text: General Materials. S-adenosylmethionine (SAM), S-adenosylhomocyteine (SAH), bicine, KCl, Tween20, dimethylsulfoxide (DMSO) and bovine skin gelatin (BSG) were purchased from Sigma-Aldrich at the highest level of purity possible. Dithiothreitol (DTT) was purchased from EMD. ^3H-SAM was purchased from American Radiolabeled Chemicals with a specific activity of 80 Ci/mmol. 384-well streptavidin Flashplates were purchased from PerkinElmer.
Substrates. […] The sequences are listed below.
Recombinant PRC2 Enzymes. Human PRC2 enzymes were purified as 4-component enzyme complexes co-expressed in Spodoptera frugiperda (sf9) cells using a baculovirus expression system. The subunits expressed were wild-type EZH2 (NM_004456) or EZH2 Y641F, N, H, S or C mutants generated from the wild-type EZH2 construct, EED (NM_003797), Suz12 (NM_015355) and RbAp48 (NM_005610). The EED subunit contained an N-terminal FLAG tag that was used to purify the entire 4-component complex from sf9 cell lysates.
General Procedure for PRC2 Enzyme Assays on Peptide Substrates. The assays were all performed in a buffer consisting of 20 mM bicine (pH=7.6), 0.5 mM DTT, 0.005% BSG and 0.002% Tween20, prepared on the day of use. […] DMSO (1 μL) was added to columns 11, 12, 23, 24, rows A-H for the maximum signal control, and SAH, a known product and inhibitor of PRC2 (1 μL) was added to columns 11, 12, 23, 24, rows I-P for the minimum signal control. A cocktail (40 μL) containing the wild-type PRC2 enzyme and H3K27me0 peptide or any of the Y641 mutant enzymes and H3K27me2 peptide was added by Multidrop Combi (Thermo). The compounds were allowed to incubate with PRC2 for 30 min at 25° C., then a cocktail (10 μL) containing a mixture of non-radioactive and ^3H-SAM was added to initiate the reaction (final volume=51 μL). […] The assays were stopped by the addition of non-radioactive SAM (10 μL) to a final concentration of 600 μM, which dilutes the ^3H-SAM to a level where its incorporation into the peptide substrate is no longer detectable. 50 μL of the reaction in the 384-well polypropylene plate was then transferred to a 384-well Flashplate and the biotinylated peptides were allowed to bind to the streptavidin surface for at least 1 h before being washed three times with 0.1% Tween20 in a Biotek ELx405 plate washer. The plates were then read in a PerkinElmer TopCount platereader to measure the quantity of ^3H-labeled peptide bound to the Flashplate surface, measured as disintegrations per minute (dpm) or alternatively, referred to as counts per minute (cpm).
Where dpm=disintegrations per minute, cmpd=signal in assay well, and min and max are the respective minimum and maximum signal controls.
Where top and bottom are the normally allowed to float, but may be fixed at 100 or 0 respectively in a 3-parameter fit. The Hill Coefficient normally allowed to float but may also be fixed at 1 in a 3-parameter fit. Y is the % inhibition and X is the compound concentration.

SMILES | IC50
Cc1cc(C)c(CNC(=O)c2cc(Br)cc3c2cnn3C2CCOCC2)c(=O)[nH]1 [Compound D-31] | 300 to 1000 nM

same assay, conditions: PRC2 enzyme assays on peptide substrates; 4 nM enzyme, 30 min preincubation at 25° C.; read-out: EZH2 IC50

SMILES | IC50
Cc1cc(C)c(CNC(=O)c2cc(-c3ccc(N4CCN(C)CC4)nc3)nc3c2cnn3C(C)C)c(=O)[nH]1 [Compound A-11, N-((4,6-dimethyl-2-oxo-1,2-dihydropyridin-3-yl)methyl)-1-isopropyl-6-(6-(4-methylpiperazin-1-yl)pyridin-3-yl)-1H-pyrazolo[3,4-b]pyridine-4-carboxamide] | 300 to 1000 nM
Cc1cc(C)c(CNC(=O)c2cc(-c3cccc(CNC4CCCCC4N)c3)nc3c2cnn3C(C)C)c(=O)[nH]1 (stereo not shown) [Compound A-25] | 300 to 1000 nM
CNCCN(C)Cc1ccc(-c2cc(C(=O)NCc3c(C)cc(C)[nH]c3=O)c3cnn(C(C)C)c3c2)cc1 [Compound A-40] | 300 to 1000 nM
Cc1cc(C)c(CNC(=O)c2cc(C3CCN(C(=O)C4CCNCC4)CC3)nc3c2cnn3C(C)C)c(=O)[nH]1 [Compound B-42] | 300 to 1000 nM
Cc1cc(C)c(CNC(=O)c2cc(C3CCN(C(=O)C4CCN(C)C4)CC3)nc3c2cnn3C(C)C)c(=O)[nH]1 (stereo not shown) [Compound B-43] | 300 to 1000 nM
Cc1cc(C)c(CNC(=O)c2cc(C3=CCN(C4CCN(C)CC4)CC3)nc3c2cnn3C(C)C)c(=O)[nH]1 [Compound B-52] | 300 to 1000 nM
Cc1cc(C)c(CNC(=O)c2cc(C3=CCN(C(=O)C4CCNC4)CC3)nc3c2cnn3C(C)C)c(=O)[nH]1 (stereo not shown) [Compound B-54] | 300 to 1000 nM
Cc1cc(C)c(CNC(=O)c2cc(C3CCN(C(=O)C4CCNC4)CC3)nc3c2cnn3C(C)C)c(=O)[nH]1 (stereo not shown) [Compound B-59] | 300 to 1000 nM
Cc1cc(C)c(CNC(=O)c2cc(C3CCN(C4CCN(C)CC4)CC3)nc3c2cnn3C(C)C)c(=O)[nH]1 [Compound B-74] | 300 to 1000 nM
Cc1cc(C)c(CNC(=O)c2cc(Br)cc3c2cnn3C2CCCC2)c(=O)[nH]1 [Compound D-1, 5-bromo-1-cyclopentyl-N-((4,6-dimethyl-2-oxo-1,2-dihydropyridin-3-yl)methyl)-1H-indazole-4-carboxamide] | 300 to 1000 nM
Cc1cc(C)c(CNC(=O)c2cc(Br)cc3c2cnn3C2CCCC2)c(=O)[nH]1 [Compound D-40] | < 300 nM
Cc1cc(C)c(CNC(=O)c2cc(C3=CCN(CCN(C)C)CC3)cc3c2cnn3C2CCCC2)c(=O)[nH]1 [Compound D-56] | 300 to 1000 nM
